Tested on: PC-3 tumor
Test: Immunohistochemistry of xenografted PC-3 tumors (Ki-67, cleaved Caspase-3)
Type: in vivo, Balb C nu/nu mice
Details: tumors 8 weeks after xenografting; 10.0 mg/kg i.p. bi-weekly

B1: 13F6: non-inhibitory monoclonal anti-uPAR antibody raised against GFDuPAR-hFc; IgG1 κ (antibody, V domains shown)
VH: ELVKPGASVELSCKASGYTFTSYWMNWVKQRPGRGLEWIGRIAPNSGGTQYSGKFKTKATLTVDKSSSTAYMQLSSLTSEDSAVYYCARGDYFGHFDYWGQGTTLTVS
VL: SLSASLGGKVTITCKASQDINNYIAWYQHKPGKGPRLLIHYTSILQPGIPSRFSGSGSGRDYSFSISNLEPEDIATYYCLQCDNLLTFGAGTKLELK
  number of cells undergoing apoptosis (cleaved Caspase-3 reactivity): did not cause any significant changes
  number of proliferating cells (Ki-67 positivity): did not cause any significant changes

— patent US20140161803A1, “CONSTITUTIVELY ACTIVE UPAR VARIANTS AND THEIR USE FOR THE GENERATION AND ISOLATION OF INHIBITORY ANTIBODIES” (IFOM Fondazione Istituo FIRC di Oncologia Molecolare, priority 2011, published 2014)
